{
  "sequences": {"note": "Protein sequences, listed by entry. Tags and fused reporters are not part of them. Lines headed by an entry give the natural chain unless they say otherwise; changes in a name come on top.", "UniProt Q9Y6K9": "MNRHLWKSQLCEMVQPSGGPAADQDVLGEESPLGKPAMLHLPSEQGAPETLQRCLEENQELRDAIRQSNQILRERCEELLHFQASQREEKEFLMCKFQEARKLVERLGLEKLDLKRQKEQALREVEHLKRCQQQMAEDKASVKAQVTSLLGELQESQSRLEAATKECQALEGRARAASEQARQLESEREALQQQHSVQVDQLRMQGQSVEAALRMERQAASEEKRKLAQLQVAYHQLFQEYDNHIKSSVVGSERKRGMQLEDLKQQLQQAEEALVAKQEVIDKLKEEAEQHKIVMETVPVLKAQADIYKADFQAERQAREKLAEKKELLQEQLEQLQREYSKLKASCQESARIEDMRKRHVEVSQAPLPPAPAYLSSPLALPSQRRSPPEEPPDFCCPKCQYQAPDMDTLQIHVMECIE"},
  "source": "paper PMC7156456",
  "about": "“Modulation of virus-induced NF-κB signaling by NEMO coiled coil mimics” (Nature Communications, 2020)",
  "target": "His-MBP vFLIP (1-178) (Kaposi's sarcoma herpesvirus (KSHV)) (UniProt Q76RF1)",
  "assay": "AlphaScreen or HTRF",
  "data": [
    {"substance": "wild-type NEMO coiled coil (non-biotinylated His-NEMO) (from UniProt Q9Y6K9 150-272) (domain or fragment)", "values": [
      {"measurement": "Ki", "result": 0.39, "unit": "µM"}
    ]}
  ]
}
